In PubChem BioAssay AID540308 (The Scripps Research Institute Molecular Screening Center, 2011):
The list shows a part of the results, in another mix than the full data. Calls of active or inactive are those of the source.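 Rule for the calls: active = activation above a per-plate cutoff, the mean activation of sample wells on that plate plus 3 SD (cut at about 8% in these data); inactive = the rest.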

By UniProt entry, the sequences of proteins in these tests, tags left out.
UniProt P32245, whole entry, looked up: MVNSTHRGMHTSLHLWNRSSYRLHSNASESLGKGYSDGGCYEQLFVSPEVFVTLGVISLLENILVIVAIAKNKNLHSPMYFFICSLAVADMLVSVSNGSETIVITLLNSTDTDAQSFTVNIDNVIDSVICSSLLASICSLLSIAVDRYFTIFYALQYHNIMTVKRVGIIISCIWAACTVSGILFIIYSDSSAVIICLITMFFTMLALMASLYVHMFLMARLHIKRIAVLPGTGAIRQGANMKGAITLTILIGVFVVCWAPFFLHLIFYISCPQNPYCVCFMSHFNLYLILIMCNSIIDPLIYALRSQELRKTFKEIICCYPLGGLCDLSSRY

Each compound was assayed against Melanocortin receptor 4 (Homo sapiens) (UniProt P32245) (assay: activators of MC4R beta-arrestin recruitment – cell-based, luminescence, agonist arm of biased-ligand search, primary screen (AID 540308)). Settings: U2OS MC4R beta-arrestin complementation, at 8.9 µM, stronger effect = higher value, percent of melanotan II response, DMSO zero.

| SMILES | activation |
| --- | --- |
| O=C(OC1CN2CCC1CC2)C12CC3CC(CC(C3)C1)C2 (configuration not stated) | inactive: 2.67% |
| O=P1(N(CCCl)CCCl)OCCCN1CCCl (configuration not stated) | inactive: 0.04% |
| O=P1(N(CCCl)CCCl)Nc2ccccc2N1 | inactive: -0.12% |
| COc1cc(I)ccc1[As](=O)(O)O | inactive: 0.62% |
| COc1ccc2nc(NP(=O)(c3ccccc3)c3ccccc3)sc2c1 | inactive: -2.15% |
| O=[N+]([O-])c1cc(Oc2ccc([N+](=O)[O-])cc2C(F)(F)F)cc([N+](=O)[O-])c1 | inactive: 1.73% |
| COc1ccc(N/C(=N/P(=O)(N2CCOCC2)N2CCOCC2)N2CCOCC2)cc1 | inactive: -3.43% |
| COP1(=S)c2c(C)nn(CCC#N)c2N=C(c2ccc(F)cc2)N1C (configuration not stated) | inactive: -2.11% |
| O=C(O)C(=O)c1ccc(N(CCCl)CCCl)cc1 | inactive: -1.27% |
| O=C(Nc1ccncc1[N+](=O)[O-])c1ccc([N+](=O)[O-])cc1[N+](=O)[O-] | inactive: -0.15% |
| O=C(COc1ccccc1)OC1CN2CCC1CC2 (configuration not stated) | inactive: 0.87% |
| CSc1ccc(Nc2c([N+](=O)[O-])cc([N+](=O)[O-])cc2[N+](=O)[O-])cc1 | inactive: -4.45% |
| O=C(OC1CN2CCC1CC2)c1cccc([N+](=O)[O-])c1 (configuration not stated) | inactive: 0.05% |
| CCOC(=O)c1ccc(NC(=O)C(C)(CCl)SC)cc1 (configuration not stated) | inactive: -1.04% |
| CCC(C)N(CC(C)C)C(=S)SC(NC(C)=O)C(Cl)(Cl)Cl (configuration not stated) | inactive: 0.18% |
| CCOC(=O)Nc1ccc([As](=O)(O)O)c(O)c1 | inactive: -1.06% |
| O=C(O)C(O)c1ccc(N(CCCl)CCCl)cc1 (configuration not stated) | inactive: -0.16% |
| CC1CCNP(=O)(N(CCCl)CCCl)O1 (configuration not stated) | inactive: -1.55% |
| COP(=O)(OC)N1CC1c1ccccc1 (configuration not stated) | inactive: -0.35% |
| Cc1cc(SC(NC(=O)c2ccccc2)C(Cl)(Cl)Cl)nc(C(C)C)n1 (configuration not stated) | inactive: 0.56% |
| CCCCOc1ccc(C(=O)NCC2(N3CCCCC3)CCCCC2)cc1OC | inactive: -1.53% |
| CCOC(=O)Nc1cccc([As](=O)(O)O)c1 | inactive: -1.9% |
| O=P(Nc1ccccn1)(c1cccc2ccccc12)c1cccc2ccccc12 | inactive: -2.59% |
| Cc1cc(SC(NC=O)C(Cl)(Cl)Cl)ncn1 (configuration not stated) | inactive: 0.87% |
| O=[N+]([O-])c1ccc(Nc2ccc(Oc3ccc([N+](=O)[O-])cc3[N+](=O)[O-])cc2)c([N+](=O)[O-])c1 | inactive: -1.21% |
| CC1CCC(C(C)C)C(OP(=O)(Nc2ccccn2)c2ccccc2)C1 (configuration not stated) | inactive: 0.36% |
| Cc1ccc(C(=O)OC2CN3CCC2CC3)cc1 (configuration not stated) | inactive: 1.17% |
